pKd: −log10 of the molar value.
What was measured:
[1] = Water solubility, saturated solution in Tris-HCl buffer, UV quantification
Description: Amphotericin B (1.2 mg/mL) and mandimycin purified in Example 3 (12 mg/mL) were separately dissolved in methanol to prepare stock solutions of amphotericin B (1.2 mg/mL) and mandimycin (12 mg/mL), respectively. A 100 µL aliquot of each of the resulting stock solutions was pre-frozen using liquid nitrogen, and then lyophilized in a freeze dryer for 24 h. Subsequently, 50 µL (for amphotericin B) or 2 µL (for mandimycin) of 10 mM Tris-HCl buffer (pH = 7.4) was added to the freeze-dried samples, and the mixtures were vortexed for 15 min to obtain saturated solutions. The mixtures were centrifuged at 12,000 rpm for 3 min, and the resulting supernatants were diluted with Tris-HCl buffer (10-fold dilution for amphotericin B and 1,000-fold dilution for mandimycin). A 10 µL aliquot was injected, and concentrations of the compounds in solution were determined by measuring the UV absorption spectra using a Shimadzu PDA detector spectrophotometer. Specifically, amphotericin B and mandimycin were accurately weighed and dissolved in DMSO to prepare 2 mg/mL stock solutions. The characteristic heptaene UV absorption peak of amphotericin B at its maximum absorption wavelength of 384 nm was used for quantification based on peak area. The characteristic pentaene UV absorption peak of mandimycin at its maximum absorption wavelength of 334 nm was used for quantification based on peak area.

[2] = Isothermal titration calorimetry (ITC); settings: ergosterol, 25°C, 5.0 mM HEPES pH 7.4
[3] = Isothermal titration calorimetry (ITC), phospholipids as a group; settings: 25°C, 5.0 mM HEPES pH 7.4
[4] = In vivo nephrotoxicity evaluation (biomarkers, histopathology); settings: mice, s.c. 1, 5, 10 or 20 mg/kg once daily
[5] = tested on: blood cells; assay: Hemolytic activity; settings: 12.5 µM, 37°C, 3 h, sheep blood cells

| Substance | Solubility (10 mM Tris-HCl, pH7.4) [1] | pKd [2] | binding to phospholipid components (ITC) [3] | nephrotoxicity-related indicators (KIM-1, TIMP-1, NGAL, OPN) [4] | hemolytic activity [5] |
| --- | --- | --- | --- | --- | --- |
| amphotericin B | 0.83 (µg/mL) | 4.58 | did not bind | markedly increased | severe hemolysis |
| nystatin |  | 4.60 | did not bind |  |  |
